According to ChEMBL document CHEMBL1134494, “2-Amino-6-arylsulfonylbenzonitriles as non-nucleoside reverse transcriptase inhibitors of HIV-1” (J Med Chem, 2001):

Target: Human immunodeficiency virus type 1 reverse transcriptase (Human immunodeficiency virus 1, UniProt Q72547)
Experiment: Inhibitory activity against HIV-1 reverse transcriptase
Procedure, shortened: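 Recombinant HIV RT at 1 nM was combined with 40 nM Eu-chelate-labeled biotinylated DNA primer/RNA template and 100 nM Cy5-dUTP. Reactions were started with enzyme. Time-resolved FRET was read with excitation at 340 nm and emission at 665 nm over 30 min.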

Compound Cc1cc(C)cc(S(=O)(=O)c2cccc(N)c2C#N)c1 has an IC50 of 7 nM.
